Values of other authors as cited in PMC4650712, “Conversion of cell-survival activity of Akt into apoptotic death of cancer cells by two mutations on the BIM BH3 domain” (Cell Death & Disease, 2015).

The chains behind the UniProt entries cited, without tags or fusion partners.
UniProt P10415, whole entry: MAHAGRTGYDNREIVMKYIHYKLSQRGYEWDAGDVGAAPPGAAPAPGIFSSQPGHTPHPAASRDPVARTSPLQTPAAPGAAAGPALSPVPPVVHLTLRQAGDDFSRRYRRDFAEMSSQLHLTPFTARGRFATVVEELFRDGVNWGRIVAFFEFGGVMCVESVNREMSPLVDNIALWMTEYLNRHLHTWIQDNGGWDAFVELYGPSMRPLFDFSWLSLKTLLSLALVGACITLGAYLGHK
UniProt Q07817, whole entry: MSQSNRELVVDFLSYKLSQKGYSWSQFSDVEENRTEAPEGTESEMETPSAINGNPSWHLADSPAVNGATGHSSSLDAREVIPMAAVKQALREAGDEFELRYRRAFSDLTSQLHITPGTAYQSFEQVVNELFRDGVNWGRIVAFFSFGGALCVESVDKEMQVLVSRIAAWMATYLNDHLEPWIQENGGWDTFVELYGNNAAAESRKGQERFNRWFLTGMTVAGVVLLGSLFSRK

Key:
BCL-2 (Homo sapiens) = BCL-2 (Homo sapiens) (UniProt P10415)
BCL-XL (Homo sapiens) = BCL-XL (Homo sapiens) (UniProt Q07817)

Kd (BCL-2 (Homo sapiens)): 7 nM
Kd (BCL-XL (Homo sapiens)): 7 nM
Substance: BIM BH3 36-mer peptide BH3 (from UniProt O43521)
